What was measured:
[1] = molecular target: T1, human MC5R (Homo sapiens, UniProt P33032); assay: Human MC5R radioligand binding assay ([125I] NDP-MSH displacement, hMC5R membranes); conditions: hMC5R assay as in Example 102; compounds tested as trifluoroacetate or hydrochloride salts, or as free base
T1 construct: purchased Perkin Elmer RBXMC5M400UA
Method: After incubation for 10 mins the phosphate buffer containing the iodine was added to NDP-MSH (10 ul at 1 mg/mL) in a separate eppendorf tube. This was incubated for a further 10 mins.
Resuspended membranes were kept on ice until they were added to the wells of the plate.
Assays were performed in 96 well polypropylene plates. […] This was incubated for 1 hr at 37 °C. Non-specific binding was determined with […] NDP-MSH. Plates were filtered using a Tomtec cell harvester with GF/A filters (Wallac) (presoaked in 0.6% polyethylenimine) and washed three times with 1.0 mL ice-cold wash buffer (the above incubation buffer without 1,10-phenanthroline and Complete™ protease inhibitor tablet). The filters were dried in a 37 °C oven, placed in a sample bag and 5 mL Betaplatescint (Wallac) was added. Prepared filters were counted in cassettes in a Microbeta Trilux (Wallac) for 1 min. […] Data analysis was performed using GraphPad Prism 4, employing competition binding with a single site model and a fixed Hill coefficient. The following equation was used: Y = Bottom + (Top-Bottom)/1/10^(X-logEC50), where X = log(concentration) and Y = binding to fit the data.

The chains behind the UniProt entries cited, without tags or fusion partners. Where a name states a change or a piece, a line headed by the entry shows the natural chain unless it says otherwise.
UniProt P33032: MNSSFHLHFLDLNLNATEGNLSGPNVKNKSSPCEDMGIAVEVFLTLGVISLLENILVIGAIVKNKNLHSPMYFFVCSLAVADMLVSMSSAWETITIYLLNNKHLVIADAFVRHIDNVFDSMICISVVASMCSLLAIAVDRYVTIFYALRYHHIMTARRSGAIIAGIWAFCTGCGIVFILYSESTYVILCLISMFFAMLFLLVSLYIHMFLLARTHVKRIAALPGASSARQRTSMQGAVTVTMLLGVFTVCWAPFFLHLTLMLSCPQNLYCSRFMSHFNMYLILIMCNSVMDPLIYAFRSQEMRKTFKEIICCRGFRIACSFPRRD

[2] = molecular target: human MC3R; assay: Human MC3R radioligand binding assay ([125I] NDP-MSH); conditions: Table 6, hMCR binding selectivity
Method: (§1) Radioligand binding assays were carried out using commercial or in-house prepared hMC1 R, hMC3R and hMC4R membranes and [^125I]
(§2) In-house plasma membranes were prepared from transfected mammalian cells (prepared as in Example 109, using plasmid DNA containing the human MC1 R, MC3R or MC4R gene or other gene of interest in a plasmid vector with a mammalian origin of replication): • Adherent cells were washed with warm Hanks buffered saline solution (HBSS). 1 mL of cold HBSS was added to each flask and the cells were scraped off with a rubber policeman. The scraped cells were added to a 50 mL tube on ice. The plates were then rinsed twice with 5 mL cold HBSS and this was also added to the tube. The cells were centrifuged at 1000 x g for 5 mins in a bench top centrifuge and the supernatant was decanted. The remaining cell pellet was resuspended in 0.25 M sucrose. The cell suspension was centrifuged again as previously and the pellet resuspended in 5 mL of 0.25 M sucrose containing protease inhibitors. The cells were homogenised by a 10 second pulse with an Ika disperser followed by 30 seconds on ice. The homogenisation and ice incubation was repeated three times. The mixture was then centrifuged at 1260 x g for 5 mins. […]

[3] = molecular target: human MC1R; assay: Human MC1R radioligand binding assay ([125I] NDP-MSH); conditions: Table 6, hMCR binding selectivity
Method: as §1, §2

[4] = molecular target: human MC4R; assay: Human MC4R radioligand binding assay ([125I] NDP-MSH); conditions: Table 6, hMCR binding selectivity
Method: as §1, §2

Compound	IC50 [1] [µM]	IC50 [2] [µM]	IC50 [3] [µM]	IC50 [4] [µM]
N=C(N)NCCC[C@@H]1N[C@@H](CNC(=O)c2ccc3ccccc3c2)CCN(CC(c2ccccc2)c2ccccc2)C1=O [Compound 104, N-(((3S,5R)-1-(2,2-diphenylethyl)-3-(3-guanidinopropyl)-2-oxo-1,4-diazepan-5-yl)methyl)-2-naphthamide]	< 10			
O=C(NC[C@@H]1CCN(CC(c2ccccc2)c2ccccc2)C(=O)[C@H](CCCN2CCCCC2)N1)c1ccc2ccccc2c1 [Compound 64, N-(((3S,5S)-1-(2,2-diphenylethyl)-2-oxo-3-(3-(piperidin-1-yl)propyl)-1,4-diazepan-5-yl)methyl)-2-naphthamide]		2.24	9.22	3.49
N=C(N)NCCC[C@H]1N[C@H](CNC(=O)c2ccc3ccccc3c2)CCN(CC(c2ccccc2)c2ccccc2)C1=O [Compound 102, N-(((3R,5S)-1-(2,2-diphenylethyl)-3-(3-guanidinopropyl)-2-oxo-1,4-diazepan-5-yl)methyl)-2-naphthamide]	< 10			
N=C(N)NCCC[C@@H]1N[C@H](CNC(=O)c2ccc3ccccc3c2)CCN(CC(c2ccccc2)c2ccccc2)C1=O [Compound 105, N-(((3S,5S)-1-(2,2-diphenylethyl)-3-(3-guanidinopropyl)-2-oxo-1,4-diazepan-5-yl)methyl)-2-naphthamide]		1.75		

— EP2257297B1, “COMPOUNDS FOR USE IN THE TREATMENT OF ACNE, SEBORRHOEA AND SEBHORROEIC DERMATITIS, OR FOR REDUCING SEBUM SECRETION” (priority 2008, dated 2009)
